Assay results published in patent US10968462B2, “Plants having increased tolerance to herbicides” (BASF AGRO B.V., priority 2013, dated 2021).

By UniProt entry, the sequences of proteins in these tests, tags left out. Residues count along the entry.
UniProt Q0NZW9, 1-534: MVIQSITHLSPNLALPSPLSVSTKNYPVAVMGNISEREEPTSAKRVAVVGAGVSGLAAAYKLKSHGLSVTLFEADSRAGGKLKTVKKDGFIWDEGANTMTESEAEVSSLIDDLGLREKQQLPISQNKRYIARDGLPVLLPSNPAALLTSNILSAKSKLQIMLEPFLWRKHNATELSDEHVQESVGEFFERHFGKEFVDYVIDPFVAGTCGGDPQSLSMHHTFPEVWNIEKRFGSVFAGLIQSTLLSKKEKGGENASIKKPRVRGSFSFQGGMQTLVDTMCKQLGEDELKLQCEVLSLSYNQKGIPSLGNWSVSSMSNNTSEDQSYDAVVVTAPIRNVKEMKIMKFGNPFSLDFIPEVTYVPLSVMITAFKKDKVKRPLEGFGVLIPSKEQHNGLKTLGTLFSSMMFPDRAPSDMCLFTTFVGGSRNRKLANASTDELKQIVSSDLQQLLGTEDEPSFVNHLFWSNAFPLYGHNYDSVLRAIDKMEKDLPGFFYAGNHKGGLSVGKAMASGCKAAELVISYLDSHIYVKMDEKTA
UniProt Q0NZW9, 1-534 F420L/R128C: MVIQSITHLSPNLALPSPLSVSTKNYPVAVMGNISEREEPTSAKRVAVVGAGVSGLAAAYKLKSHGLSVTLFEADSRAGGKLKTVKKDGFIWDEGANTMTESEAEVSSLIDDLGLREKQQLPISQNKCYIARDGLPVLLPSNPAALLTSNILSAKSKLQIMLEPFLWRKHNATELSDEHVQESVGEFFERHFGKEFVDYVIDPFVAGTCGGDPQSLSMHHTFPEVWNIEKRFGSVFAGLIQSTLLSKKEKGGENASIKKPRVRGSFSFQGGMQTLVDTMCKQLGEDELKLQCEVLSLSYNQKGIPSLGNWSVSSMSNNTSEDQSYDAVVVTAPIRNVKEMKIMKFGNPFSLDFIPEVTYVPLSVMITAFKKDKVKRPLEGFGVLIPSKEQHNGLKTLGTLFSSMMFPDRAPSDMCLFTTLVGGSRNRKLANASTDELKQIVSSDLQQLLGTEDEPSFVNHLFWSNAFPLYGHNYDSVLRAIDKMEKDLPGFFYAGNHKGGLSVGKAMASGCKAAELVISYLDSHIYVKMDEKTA
UniProt Q0NZW9, 1-534 F420M/R128A: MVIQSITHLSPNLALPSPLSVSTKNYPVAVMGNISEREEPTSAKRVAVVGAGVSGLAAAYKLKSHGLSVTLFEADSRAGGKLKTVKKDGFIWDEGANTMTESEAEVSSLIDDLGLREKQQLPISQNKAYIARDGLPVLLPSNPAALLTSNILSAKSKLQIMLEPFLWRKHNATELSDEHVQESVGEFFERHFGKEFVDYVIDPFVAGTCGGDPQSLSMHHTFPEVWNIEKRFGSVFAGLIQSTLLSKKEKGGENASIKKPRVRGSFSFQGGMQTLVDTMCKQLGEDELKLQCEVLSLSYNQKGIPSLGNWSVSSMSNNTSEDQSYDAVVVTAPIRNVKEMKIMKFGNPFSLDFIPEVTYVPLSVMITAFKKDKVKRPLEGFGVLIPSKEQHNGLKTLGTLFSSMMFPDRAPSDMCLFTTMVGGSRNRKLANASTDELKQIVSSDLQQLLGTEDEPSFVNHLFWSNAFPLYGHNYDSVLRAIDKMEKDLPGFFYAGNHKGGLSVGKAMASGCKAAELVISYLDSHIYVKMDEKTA
UniProt Q0NZW9, 1-534 F420M/R128C: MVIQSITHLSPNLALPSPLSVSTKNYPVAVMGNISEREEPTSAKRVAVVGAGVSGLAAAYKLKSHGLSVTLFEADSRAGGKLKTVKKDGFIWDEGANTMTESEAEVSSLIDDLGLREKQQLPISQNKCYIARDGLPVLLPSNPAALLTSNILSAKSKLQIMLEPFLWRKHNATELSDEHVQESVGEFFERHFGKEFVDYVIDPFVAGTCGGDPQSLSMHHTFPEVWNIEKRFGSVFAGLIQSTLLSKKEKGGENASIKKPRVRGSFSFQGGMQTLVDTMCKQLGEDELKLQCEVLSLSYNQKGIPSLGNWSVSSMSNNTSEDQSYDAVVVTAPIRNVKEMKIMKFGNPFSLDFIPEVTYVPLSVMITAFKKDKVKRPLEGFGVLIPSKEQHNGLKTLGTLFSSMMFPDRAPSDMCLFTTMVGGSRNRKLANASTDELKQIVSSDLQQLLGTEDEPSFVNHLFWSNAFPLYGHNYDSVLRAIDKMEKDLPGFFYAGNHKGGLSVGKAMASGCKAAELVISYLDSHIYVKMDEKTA
UniProt Q0NZW9, 1-534 F420M/R128H: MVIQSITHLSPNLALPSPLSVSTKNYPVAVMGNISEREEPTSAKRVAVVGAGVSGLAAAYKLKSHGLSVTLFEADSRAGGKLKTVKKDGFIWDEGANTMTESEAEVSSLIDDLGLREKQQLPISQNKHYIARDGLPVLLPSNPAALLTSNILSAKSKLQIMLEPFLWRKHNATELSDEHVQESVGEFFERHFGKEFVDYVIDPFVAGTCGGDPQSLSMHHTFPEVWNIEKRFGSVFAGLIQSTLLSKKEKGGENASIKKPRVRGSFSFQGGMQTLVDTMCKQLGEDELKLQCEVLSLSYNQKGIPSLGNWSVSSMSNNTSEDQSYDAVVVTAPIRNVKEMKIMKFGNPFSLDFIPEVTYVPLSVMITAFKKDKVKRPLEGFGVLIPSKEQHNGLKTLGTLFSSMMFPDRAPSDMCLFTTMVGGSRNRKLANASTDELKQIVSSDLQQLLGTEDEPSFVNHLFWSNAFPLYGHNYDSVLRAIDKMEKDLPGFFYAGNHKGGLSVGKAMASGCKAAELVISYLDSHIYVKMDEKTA
UniProt Q0NZW9, 1-534 F420M/R128M: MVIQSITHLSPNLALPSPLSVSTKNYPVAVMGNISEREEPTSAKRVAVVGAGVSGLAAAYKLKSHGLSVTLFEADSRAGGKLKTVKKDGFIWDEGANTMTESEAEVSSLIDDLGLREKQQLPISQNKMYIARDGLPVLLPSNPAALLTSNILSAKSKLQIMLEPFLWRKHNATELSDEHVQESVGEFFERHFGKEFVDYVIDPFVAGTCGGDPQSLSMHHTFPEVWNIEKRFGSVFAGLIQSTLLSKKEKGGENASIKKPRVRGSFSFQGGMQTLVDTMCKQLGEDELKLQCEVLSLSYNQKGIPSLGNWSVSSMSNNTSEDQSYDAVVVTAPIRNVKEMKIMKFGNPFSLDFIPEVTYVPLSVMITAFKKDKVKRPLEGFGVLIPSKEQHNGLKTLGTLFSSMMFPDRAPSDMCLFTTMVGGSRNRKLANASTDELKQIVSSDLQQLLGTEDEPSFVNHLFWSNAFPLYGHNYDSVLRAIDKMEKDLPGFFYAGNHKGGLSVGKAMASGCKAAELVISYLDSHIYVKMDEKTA
UniProt Q0NZW9, 1-534 F420M/R128V: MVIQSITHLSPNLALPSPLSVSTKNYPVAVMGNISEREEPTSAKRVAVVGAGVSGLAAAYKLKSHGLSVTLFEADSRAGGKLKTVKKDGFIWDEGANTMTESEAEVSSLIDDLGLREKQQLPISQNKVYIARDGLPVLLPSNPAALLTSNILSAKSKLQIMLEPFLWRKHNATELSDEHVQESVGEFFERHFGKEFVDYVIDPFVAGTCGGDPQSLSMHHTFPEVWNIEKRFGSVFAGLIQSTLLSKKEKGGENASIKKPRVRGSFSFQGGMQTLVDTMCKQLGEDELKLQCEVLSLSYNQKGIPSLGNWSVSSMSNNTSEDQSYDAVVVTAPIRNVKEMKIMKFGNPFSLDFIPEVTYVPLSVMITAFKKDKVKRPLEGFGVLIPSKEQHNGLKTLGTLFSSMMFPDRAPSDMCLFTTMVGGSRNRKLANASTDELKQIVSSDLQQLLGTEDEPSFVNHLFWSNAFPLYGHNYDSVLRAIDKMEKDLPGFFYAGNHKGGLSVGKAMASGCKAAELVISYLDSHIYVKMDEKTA
UniProt Q0NZW9, 1-534 F420V/R128A: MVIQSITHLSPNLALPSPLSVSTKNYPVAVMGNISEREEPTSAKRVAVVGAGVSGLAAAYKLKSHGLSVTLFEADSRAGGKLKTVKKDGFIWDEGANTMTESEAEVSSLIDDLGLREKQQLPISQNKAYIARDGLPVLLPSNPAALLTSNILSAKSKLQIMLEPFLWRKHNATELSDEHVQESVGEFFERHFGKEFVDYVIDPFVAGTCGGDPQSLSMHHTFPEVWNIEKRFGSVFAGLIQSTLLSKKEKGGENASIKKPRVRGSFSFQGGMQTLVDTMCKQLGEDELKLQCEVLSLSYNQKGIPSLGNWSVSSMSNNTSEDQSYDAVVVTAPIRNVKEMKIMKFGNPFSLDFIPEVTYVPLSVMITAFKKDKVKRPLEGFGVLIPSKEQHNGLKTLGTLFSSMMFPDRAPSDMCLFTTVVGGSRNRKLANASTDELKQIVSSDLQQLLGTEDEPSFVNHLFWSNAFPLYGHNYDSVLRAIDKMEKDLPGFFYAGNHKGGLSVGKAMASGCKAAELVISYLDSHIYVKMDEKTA
UniProt Q0NZW9, 1-534 F420V/R128C: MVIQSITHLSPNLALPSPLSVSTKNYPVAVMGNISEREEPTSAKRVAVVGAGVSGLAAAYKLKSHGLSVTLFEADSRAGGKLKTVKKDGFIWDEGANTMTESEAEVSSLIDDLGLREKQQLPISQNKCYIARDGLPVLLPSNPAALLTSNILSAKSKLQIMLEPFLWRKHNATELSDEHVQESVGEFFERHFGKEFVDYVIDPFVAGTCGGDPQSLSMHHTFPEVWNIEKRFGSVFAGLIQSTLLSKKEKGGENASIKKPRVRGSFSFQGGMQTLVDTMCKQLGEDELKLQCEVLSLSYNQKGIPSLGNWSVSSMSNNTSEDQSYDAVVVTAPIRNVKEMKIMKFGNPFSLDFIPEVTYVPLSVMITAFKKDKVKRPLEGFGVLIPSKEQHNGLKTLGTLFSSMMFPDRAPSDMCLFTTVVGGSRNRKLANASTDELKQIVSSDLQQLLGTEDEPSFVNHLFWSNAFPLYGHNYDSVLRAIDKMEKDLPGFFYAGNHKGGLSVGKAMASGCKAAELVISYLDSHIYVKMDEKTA
UniProt Q0NZW9, 1-534 F420V/R128I: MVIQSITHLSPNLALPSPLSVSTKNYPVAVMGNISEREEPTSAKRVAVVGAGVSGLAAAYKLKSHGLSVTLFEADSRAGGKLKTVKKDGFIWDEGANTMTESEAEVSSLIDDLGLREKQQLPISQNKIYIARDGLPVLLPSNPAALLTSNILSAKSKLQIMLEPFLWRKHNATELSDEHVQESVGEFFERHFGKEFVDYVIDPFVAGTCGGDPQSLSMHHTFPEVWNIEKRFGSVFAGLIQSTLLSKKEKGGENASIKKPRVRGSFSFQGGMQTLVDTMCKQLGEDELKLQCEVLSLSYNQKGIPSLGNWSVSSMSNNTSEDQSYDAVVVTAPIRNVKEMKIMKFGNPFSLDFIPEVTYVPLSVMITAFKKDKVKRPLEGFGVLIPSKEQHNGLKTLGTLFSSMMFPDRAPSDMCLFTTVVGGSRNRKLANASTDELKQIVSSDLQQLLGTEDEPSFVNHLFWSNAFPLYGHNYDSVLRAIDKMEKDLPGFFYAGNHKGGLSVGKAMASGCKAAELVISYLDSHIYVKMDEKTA

Assays:
Test in all cases: PPO enzyme assay (recombinant), IC50 on wild type and amino acid substituted PPO2
Assay type in all cases: biochemical, Amaranthus tuberculatum
[1] = molecular target: wild type and amino acid substituted PPO enzyme (PPO2) of SEQ ID NO: 2 (AMARE) (Amaranthus tuberculatus, UniProt Q0NZW9, R128I/F420V, form not given); settings: mutation R128I, F420V
[2] = molecular target: wild type and amino acid substituted PPO enzyme (PPO2) of SEQ ID NO: 2 (AMARE) (Amaranthus tuberculatus, UniProt Q0NZW9, R128M/F420M, form not given); settings: mutation R128M, F420M
[3] = molecular target: wild type and amino acid substituted PPO enzyme (PPO2) of SEQ ID NO: 2 (AMARE) (Amaranthus tuberculatus, UniProt Q0NZW9, R128C/F420V, form not given); settings: mutation R128C, F420V
[4] = molecular target: wild type and amino acid substituted PPO enzyme (PPO2) of SEQ ID NO: 2 (AMARE) (Amaranthus tuberculatus, UniProt Q0NZW9, R128H/F420M, form not given); settings: mutation R128H, F420M
[5] = molecular target: wild type and amino acid substituted PPO enzyme (PPO2) of SEQ ID NO: 2 (AMARE) (Amaranthus tuberculatus, UniProt Q0NZW9); settings: PPO enzyme WT
[6] = molecular target: wild type and amino acid substituted PPO enzyme (PPO2) of SEQ ID NO: 2 (AMARE) (Amaranthus tuberculatus, UniProt Q0NZW9, R128C/F420L, form not given); settings: mutation R128C, F420L
[7] = molecular target: wild type and amino acid substituted PPO enzyme (PPO2) of SEQ ID NO: 2 (AMARE) (Amaranthus tuberculatus, UniProt Q0NZW9, R128A/F420M, form not given); settings: mutation R128A, F420M
[8] = molecular target: wild type and amino acid substituted PPO enzyme (PPO2) of SEQ ID NO: 2 (AMARE) (Amaranthus tuberculatus, UniProt Q0NZW9, R128A/F420V, form not given); settings: mutation R128A, F420V
[9] = molecular target: wild type and amino acid substituted PPO enzyme (PPO2) of SEQ ID NO: 2 (AMARE) (Amaranthus tuberculatus, UniProt Q0NZW9, R128V/F420M, form not given); settings: mutation R128V, F420M
[10] = molecular target: wild type and amino acid substituted PPO enzyme (PPO2) of SEQ ID NO: 2 (AMARE) (Amaranthus tuberculatus, UniProt Q0NZW9, R128C/F420M, form not given); settings: mutation R128C, F420M

C#CCOc1cc(-n2nc(C(C)(C)C)oc2=O)c(Cl)cc1Cl
IC50 [1]: 0.0276 µM | IC50 [2]: 0.0333 µM | IC50 [3]: 0.146 µM | IC50 [4]: 0.0132 µM | IC50 [5]: 0.000364 µM | IC50 [6]: 3.01 µM | IC50 [7]: 0.0197 µM | IC50 [8]: 0.0438 µM | IC50 [9]: 0.034 µM | IC50 [10]: 0.0624 µM
